Earlier results in patent US9828333B2, “Compounds for the treatment of influenza” (CHRISTIAN-ALBRECHTS-UNIVERSITAT ZU KIEL, priority 2011, dated 2017).

Settings: in vivo; cited from earlier work

## CC(=O)N[C@H]1[C@H]([C@H](O)[C@H](O)CO)OC(C(=O)O)=C[C@@H]1N=C(N)N [Zanamivir]
  bioavailability after oral administration: 2%
